Data set [1] has as its target acetylcholinesterase (AChE) (Electrophorus electricus, UniProt O42275). Nature of the data set: KF inhibitory effects on acetylcholinesterase.
The conditions of data set [2]: after oral administration of 30-60 mg, metabolic excretion and conversion not considered; cited from earlier work.
The target in the next data set is Blood AChE (Homo sapiens, UniProt P22303). Nature of the data set: Blood acetylcholinesterase inhibition in spiked human blood (conventional/commercial AChE assay kit).
For data set [3], the target named is Immobilised AChE (ImmAChE), acetylcholinesterase from electric eels (Electrophorus electricus, UniProt O42275).
[4] abbreviates: 1000 nM Dichlorvos spiked in blood.
Where [5] appears, read: 1250 nM Dichlorvos spiked in blood.
Setting [6] is: 1500 nM Dichlorvos spiked in blood.

Sequences of proteins named here, by UniProt entry; tags and fusion partners are left off. A change or cut given only in a name is not applied to a line headed by its entry. Residues count along the entry.
UniProt O42275, 24-633 limits assumed: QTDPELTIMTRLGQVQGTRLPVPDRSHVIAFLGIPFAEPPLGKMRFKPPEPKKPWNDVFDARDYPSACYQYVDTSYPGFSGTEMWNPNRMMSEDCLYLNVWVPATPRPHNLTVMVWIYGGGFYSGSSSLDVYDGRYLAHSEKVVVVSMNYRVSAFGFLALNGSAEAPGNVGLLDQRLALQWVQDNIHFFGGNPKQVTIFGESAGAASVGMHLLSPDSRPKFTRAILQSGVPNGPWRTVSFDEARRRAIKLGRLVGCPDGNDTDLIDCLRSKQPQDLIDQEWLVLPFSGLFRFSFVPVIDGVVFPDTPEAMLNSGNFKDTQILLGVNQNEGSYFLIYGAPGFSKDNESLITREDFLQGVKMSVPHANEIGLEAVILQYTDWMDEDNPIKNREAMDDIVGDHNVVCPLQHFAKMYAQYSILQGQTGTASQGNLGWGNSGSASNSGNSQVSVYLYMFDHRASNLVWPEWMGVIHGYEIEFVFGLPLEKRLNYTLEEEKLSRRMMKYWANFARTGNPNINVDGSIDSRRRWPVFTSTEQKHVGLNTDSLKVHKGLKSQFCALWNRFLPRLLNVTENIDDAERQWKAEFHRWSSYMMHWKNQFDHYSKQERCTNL
UniProt P22303: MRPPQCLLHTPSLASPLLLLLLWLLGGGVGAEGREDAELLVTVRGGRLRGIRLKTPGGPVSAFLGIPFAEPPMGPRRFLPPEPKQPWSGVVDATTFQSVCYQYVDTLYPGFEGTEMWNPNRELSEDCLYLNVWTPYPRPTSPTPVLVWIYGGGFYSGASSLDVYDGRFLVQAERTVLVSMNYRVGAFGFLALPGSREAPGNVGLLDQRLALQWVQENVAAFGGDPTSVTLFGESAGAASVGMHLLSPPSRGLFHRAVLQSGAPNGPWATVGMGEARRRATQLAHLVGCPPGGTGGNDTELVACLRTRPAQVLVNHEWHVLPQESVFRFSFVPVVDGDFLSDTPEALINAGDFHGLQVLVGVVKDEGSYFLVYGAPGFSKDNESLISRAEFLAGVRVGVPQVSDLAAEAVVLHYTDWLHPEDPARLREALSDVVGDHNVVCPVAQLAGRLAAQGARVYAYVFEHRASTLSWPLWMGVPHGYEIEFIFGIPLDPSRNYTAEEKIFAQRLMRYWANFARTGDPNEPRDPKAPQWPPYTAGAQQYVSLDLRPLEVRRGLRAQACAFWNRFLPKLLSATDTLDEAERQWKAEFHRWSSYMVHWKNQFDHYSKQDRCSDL

Where “and” joins values, the source holds several entries; their conditions need not be identical. Equal values may be shown once. Read-outs that look alike come from different tables or passages of the source.

As to potassium fluoride, the “decrease of enzyme activities (AChE)” value in data set [1] (2 mM KF) is on record as “more than 70%”. Moreover, the AChE inhibition entry in data set [1] (20 mM KF) is given as “complete AChE inhibition”.

Consider `CN(C)C(=O)Oc1ccc[n+](C)c1`, for which, in data set [2], the “Pyr concentration in blood” value was 1 E-07 M.

Consider `COP(=O)(OC)OC=C(Cl)Cl`, for which the “% Inhibition of Blood AChE” value is 26.6% on Blood AChE (setting [4]); > 30% and 33.0% on Blood AChE (setting [5]); 35.0% at Blood AChE (setting [6]). In addition, the “% Current test Kit Response” value was 22% and 22.7% in data set [3] (setting [4]); 30.4% in data set [3] (setting [5]); 39.8% in data set [3] (setting [6]).

These data come from patent publication US8187832B2, “Method of detecting an amount of a cholinesterase inhibitor in a sample” (dated 2012).
